# Publication PMC10035370, “Targeting Tumor Angiogenesis with the Selective VEGFR-3 Inhibitor EVT801 in Combination with Cancer Immunotherapy” (Cancer Research Communications, 2022)
# The chains behind the UniProt entries cited, without tags or fusion partners. Residues count along the entry.
# UniProt P35916, 25-1363 limits assumed: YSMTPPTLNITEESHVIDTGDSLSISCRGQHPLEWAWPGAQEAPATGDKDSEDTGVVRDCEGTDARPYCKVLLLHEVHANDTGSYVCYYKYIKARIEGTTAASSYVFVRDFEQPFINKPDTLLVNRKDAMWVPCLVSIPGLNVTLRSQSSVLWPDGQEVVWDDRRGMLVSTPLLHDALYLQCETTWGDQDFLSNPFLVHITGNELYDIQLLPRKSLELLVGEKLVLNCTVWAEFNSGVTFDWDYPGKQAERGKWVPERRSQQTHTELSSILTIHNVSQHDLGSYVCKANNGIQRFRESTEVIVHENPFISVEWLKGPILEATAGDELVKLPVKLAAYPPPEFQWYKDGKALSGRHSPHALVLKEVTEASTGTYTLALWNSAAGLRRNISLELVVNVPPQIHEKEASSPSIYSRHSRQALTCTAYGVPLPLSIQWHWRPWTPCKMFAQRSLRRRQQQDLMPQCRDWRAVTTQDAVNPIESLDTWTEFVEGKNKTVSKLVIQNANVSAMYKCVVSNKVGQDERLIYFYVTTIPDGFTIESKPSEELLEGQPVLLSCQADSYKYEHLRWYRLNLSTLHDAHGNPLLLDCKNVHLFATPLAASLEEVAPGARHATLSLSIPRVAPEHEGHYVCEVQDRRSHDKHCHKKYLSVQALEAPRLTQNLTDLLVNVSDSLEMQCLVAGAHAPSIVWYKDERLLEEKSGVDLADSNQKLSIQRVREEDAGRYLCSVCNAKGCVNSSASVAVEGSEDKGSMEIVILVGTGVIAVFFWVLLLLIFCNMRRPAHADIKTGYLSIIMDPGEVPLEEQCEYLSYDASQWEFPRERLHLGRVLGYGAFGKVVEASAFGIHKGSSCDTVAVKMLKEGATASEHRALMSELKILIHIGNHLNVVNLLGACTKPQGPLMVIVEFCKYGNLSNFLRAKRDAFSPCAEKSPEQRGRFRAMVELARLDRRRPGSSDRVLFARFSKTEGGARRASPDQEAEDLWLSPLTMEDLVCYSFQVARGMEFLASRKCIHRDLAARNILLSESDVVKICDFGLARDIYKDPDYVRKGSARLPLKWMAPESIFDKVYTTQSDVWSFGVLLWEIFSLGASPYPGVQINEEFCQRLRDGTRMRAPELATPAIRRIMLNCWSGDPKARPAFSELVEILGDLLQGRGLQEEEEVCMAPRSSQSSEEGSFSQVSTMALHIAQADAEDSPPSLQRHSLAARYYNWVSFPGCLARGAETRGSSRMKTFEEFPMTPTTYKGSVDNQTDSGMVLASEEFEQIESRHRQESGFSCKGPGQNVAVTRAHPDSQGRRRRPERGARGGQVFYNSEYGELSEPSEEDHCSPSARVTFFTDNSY
# UniProt P35916, 845-1173 limits assumed: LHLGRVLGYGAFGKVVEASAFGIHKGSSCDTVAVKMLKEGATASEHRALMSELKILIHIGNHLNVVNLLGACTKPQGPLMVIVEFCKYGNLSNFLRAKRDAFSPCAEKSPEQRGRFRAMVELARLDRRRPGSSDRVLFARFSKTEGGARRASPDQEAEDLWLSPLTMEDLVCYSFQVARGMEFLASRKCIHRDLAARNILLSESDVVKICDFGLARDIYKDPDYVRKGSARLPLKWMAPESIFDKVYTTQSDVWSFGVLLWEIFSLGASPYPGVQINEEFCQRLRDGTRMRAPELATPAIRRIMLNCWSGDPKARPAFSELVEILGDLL
# UniProt A0A2K5X6S1, 25-1409 limits assumed: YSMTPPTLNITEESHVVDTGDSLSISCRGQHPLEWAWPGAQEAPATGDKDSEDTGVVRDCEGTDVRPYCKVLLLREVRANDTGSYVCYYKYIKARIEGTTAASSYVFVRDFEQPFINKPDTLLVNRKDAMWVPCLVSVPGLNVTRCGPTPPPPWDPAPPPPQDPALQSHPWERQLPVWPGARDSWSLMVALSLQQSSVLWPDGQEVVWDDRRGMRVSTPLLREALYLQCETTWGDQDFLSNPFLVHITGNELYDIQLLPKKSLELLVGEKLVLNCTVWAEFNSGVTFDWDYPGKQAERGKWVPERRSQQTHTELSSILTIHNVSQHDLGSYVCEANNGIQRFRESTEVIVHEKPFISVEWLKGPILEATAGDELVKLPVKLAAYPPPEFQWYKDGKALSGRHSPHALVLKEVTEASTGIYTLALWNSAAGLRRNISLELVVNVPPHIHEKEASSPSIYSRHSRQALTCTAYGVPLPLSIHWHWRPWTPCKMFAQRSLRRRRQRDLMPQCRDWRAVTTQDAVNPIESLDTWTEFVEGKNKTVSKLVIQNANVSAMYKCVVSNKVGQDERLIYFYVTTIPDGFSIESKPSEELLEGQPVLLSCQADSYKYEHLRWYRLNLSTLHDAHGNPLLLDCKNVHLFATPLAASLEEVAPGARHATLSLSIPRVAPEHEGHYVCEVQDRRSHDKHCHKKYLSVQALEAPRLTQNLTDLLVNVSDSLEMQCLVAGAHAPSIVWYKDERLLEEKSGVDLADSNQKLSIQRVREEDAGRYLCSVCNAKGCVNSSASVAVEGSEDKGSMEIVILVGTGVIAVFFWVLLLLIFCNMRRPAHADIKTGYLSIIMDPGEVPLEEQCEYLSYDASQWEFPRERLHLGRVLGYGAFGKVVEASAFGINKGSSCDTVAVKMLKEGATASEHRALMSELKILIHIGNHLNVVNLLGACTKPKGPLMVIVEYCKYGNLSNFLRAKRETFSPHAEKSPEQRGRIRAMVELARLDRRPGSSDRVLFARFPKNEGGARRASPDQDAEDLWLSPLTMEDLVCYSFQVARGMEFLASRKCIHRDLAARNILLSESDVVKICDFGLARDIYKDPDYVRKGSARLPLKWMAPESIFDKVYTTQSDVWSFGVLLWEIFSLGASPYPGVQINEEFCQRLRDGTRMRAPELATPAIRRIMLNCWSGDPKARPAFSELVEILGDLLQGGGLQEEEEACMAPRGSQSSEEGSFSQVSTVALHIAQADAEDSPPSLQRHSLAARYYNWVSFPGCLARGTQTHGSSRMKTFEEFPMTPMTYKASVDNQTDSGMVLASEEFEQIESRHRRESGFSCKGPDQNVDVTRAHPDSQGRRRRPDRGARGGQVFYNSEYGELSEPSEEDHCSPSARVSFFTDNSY
# UniProt P35968, 20-1356 limits assumed: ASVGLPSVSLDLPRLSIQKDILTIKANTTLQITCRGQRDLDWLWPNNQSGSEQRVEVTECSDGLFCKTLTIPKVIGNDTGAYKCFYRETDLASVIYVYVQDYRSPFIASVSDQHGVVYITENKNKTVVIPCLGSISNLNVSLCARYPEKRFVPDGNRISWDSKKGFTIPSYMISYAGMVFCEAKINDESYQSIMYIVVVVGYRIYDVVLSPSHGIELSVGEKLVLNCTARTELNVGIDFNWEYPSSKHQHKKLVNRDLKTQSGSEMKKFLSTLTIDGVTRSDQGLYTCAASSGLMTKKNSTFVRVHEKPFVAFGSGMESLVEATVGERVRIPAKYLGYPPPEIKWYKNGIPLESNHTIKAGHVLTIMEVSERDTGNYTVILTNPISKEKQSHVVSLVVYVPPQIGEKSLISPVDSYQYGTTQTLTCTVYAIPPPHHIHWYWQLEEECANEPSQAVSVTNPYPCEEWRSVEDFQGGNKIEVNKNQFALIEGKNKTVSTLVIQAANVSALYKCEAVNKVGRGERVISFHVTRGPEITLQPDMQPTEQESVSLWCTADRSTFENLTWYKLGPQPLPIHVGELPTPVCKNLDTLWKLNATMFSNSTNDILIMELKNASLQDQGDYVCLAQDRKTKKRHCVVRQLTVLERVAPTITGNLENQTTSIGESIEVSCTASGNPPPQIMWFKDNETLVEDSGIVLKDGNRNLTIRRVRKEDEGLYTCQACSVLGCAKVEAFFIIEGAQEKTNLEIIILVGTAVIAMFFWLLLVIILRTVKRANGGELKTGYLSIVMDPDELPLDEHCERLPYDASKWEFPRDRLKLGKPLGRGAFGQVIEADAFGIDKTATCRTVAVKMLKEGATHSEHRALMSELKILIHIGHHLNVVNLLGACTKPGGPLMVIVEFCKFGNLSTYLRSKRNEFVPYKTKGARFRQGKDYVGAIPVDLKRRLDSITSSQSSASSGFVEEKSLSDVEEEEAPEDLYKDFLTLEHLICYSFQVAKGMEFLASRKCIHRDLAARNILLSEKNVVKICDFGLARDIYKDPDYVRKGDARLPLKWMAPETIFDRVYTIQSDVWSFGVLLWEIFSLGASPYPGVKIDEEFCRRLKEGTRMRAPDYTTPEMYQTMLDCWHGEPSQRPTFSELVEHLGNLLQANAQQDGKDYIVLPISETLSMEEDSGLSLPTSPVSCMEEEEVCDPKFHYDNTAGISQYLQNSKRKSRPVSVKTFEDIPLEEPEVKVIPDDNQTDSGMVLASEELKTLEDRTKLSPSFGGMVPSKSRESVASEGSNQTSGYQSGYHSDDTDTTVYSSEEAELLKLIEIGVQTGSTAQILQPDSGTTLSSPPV
# UniProt P35968, 834-1162 limits assumed: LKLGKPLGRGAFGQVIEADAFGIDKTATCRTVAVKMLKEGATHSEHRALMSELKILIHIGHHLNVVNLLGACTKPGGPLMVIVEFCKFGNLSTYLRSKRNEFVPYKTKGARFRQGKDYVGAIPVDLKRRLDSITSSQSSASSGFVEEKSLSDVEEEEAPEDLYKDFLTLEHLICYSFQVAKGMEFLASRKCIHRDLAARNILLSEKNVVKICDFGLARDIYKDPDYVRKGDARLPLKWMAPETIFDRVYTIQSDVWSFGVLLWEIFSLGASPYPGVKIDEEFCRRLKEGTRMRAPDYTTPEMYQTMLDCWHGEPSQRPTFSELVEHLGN
# UniProt P17948, 27-1338 limits assumed: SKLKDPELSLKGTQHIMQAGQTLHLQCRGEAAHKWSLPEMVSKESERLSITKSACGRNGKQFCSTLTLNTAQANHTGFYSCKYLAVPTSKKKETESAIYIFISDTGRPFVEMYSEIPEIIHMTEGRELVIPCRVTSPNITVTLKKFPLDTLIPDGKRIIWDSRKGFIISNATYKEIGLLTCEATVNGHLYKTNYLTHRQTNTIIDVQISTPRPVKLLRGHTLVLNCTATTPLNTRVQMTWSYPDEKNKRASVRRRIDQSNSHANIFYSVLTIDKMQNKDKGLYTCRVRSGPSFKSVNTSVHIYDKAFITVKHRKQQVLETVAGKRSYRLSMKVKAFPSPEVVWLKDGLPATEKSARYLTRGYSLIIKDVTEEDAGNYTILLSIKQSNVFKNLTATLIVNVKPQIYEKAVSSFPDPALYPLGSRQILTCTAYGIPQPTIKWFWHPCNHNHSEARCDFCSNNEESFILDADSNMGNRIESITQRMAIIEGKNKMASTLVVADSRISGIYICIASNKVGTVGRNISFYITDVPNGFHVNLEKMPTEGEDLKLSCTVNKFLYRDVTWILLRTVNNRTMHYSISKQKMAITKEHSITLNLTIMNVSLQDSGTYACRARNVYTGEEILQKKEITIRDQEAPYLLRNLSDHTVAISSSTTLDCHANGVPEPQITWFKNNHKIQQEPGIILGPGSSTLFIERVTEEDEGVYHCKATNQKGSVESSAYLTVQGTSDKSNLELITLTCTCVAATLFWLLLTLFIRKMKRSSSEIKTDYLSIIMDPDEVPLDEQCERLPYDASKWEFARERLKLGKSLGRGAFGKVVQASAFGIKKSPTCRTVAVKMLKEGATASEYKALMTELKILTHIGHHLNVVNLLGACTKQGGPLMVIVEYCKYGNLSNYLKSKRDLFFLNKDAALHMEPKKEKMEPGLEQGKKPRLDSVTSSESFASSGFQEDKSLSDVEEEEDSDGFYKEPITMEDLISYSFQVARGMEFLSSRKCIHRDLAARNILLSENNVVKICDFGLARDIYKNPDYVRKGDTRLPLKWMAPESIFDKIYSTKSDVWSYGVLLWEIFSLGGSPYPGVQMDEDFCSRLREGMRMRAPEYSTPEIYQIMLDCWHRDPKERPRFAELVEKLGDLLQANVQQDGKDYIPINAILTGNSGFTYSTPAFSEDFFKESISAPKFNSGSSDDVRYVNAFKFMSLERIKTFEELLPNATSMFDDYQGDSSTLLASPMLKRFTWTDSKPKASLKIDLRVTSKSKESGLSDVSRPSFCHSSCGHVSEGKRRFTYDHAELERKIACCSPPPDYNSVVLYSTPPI
# UniProt P17948, 827-1158 limits assumed: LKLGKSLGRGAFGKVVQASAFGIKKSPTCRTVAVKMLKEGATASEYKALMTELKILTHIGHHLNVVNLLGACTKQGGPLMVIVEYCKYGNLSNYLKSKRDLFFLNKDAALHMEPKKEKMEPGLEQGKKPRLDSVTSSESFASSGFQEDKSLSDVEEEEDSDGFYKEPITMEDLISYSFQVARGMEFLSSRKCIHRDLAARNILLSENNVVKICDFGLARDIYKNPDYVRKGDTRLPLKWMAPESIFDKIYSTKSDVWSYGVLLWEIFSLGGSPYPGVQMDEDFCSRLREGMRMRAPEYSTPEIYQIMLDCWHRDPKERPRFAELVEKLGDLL
# Legend:
# VEGFR-3 [1] = target: T1, VEGFR-3 (Homo sapiens, UniProt P35916); assay: Cellular autophosphorylation assay, HEK293 cells transiently expressing VEGFR-3; settings: read-out: VEGFR-3 autophosphorylation, Cellular assay
# Description: (§1) Transfection of HEK293T cells and Ba/F3 cells with VEGFR-1-Flag, VEGFR-2-Flag or VEGFR-3-Flag expression constructs was performed using Fugene-6 (Roche) as per manufacturer’s protocol. Briefly, Fugene-6 was pre-incubated with Opti-Mem (Gibco) before adding DNA. After 24 h, media was replaced with serum-free culture media containing 0.2 % BSA. On the next day, cells were incubated for 1 h in 1 mM orthovanadate, harvested, dissociated and distributed at 4 x 10^5 cells in 5 mL for HEK-VEGFR-1 and HEK-VEGFR-3, and 5 x 10^4 cells per 5 mL for HEK VEGFR-2 in the presence of EVT801 or SAR401849. After 30 min, the reaction was stopped by the addition of cold PBS supplemented with 1 mM orthovanadate. Cells were then lysed with 150 μl of RIPA buffer for 15 min at 4°C, then centrifuged for 10 min at 10,000 g. Supernatants (75 μl) were distributed in duplicate on 96 well plates that were precoated with the anti-flag, and left for 1 h at room temperature. After 3 washes, the anti-phosphotyrosine conjugated to the HRP was added and incubated for 1 h at room temperature. Wells were then washed 3 times with TBS buffer containing 0.5 % Tween-20 and 2 mM MgCl2. The reaction was stopped with 50 μL of 2 N H2SO4, and the signal was read with Envision at the wavelengths of 485 nm and 530 nm.
# Ion channels, 7 targets = assay: Ion channels panel; settings: concentration of 1 µM
# AuroraB = AuroraB (Homo sapiens, UniProt Q96GD4); assay: Internal kinase panel, AuroraB; settings: inhibition at 1 µM; 48 or 60 kinase panel
# Description: (§2) Recombinant human proteins from different vendors (Carna Bio, Millipore, Invitrogen) were suspended in phosphate buffer, pH 7.4 containing 1 mM DTT and pre-incubated with EVT801 or SAR401849 for 15 min. Then, substrate and ATP were added (final concentrations of 1.5 µM and equal to Km), the mixture incubated for 90 min at 28 °C. After incubation, 25 µL ADP-Glo reagent (Promega) was added to the reactions, and incubated at room temperature for 40 min. Then, 50 µL of kinase detection reagent was added and incubated for 40 min. Subsequently, the reaction was stopped with EDTA, and luminescence was recorded and IC50 values were determined.
# VEGFR-3 [2] = target: VEGFR-3 (Macaca fascicularis, UniProt A0A2K5X6S1); assay: Cellular VEGFR-3 autophosphorylation assay, monkey receptor; assay type: cell-based; settings: read-out: VEGFR-3 autophosphorylation, Cellular assay
# Description: as §1
# VEGFR2 [3] = target: T2, VEGFR2 (Homo sapiens, UniProt P35968); assay: Viability of Ba/F3 cells dependent on VEGFR-2; settings: read-out: IC50, VEGFR-2-dependent viability
# Description: (§3) Ba/F3 cells were transduced and selected to stably express fusion proteins consisting of constructs for IL-3 independent survival and either VEGFR-2 or VEGFR-3 kinase domains or without the kinase domain. Proliferation and survival of cell lines was dependent on expression of the transcript. Cells in logarithmic-phase growth were harvested and 5 x 10^3 cells were distributed into each well of a 384-well plate in 50 µL of medium. Then, 50 nL of EVT801, SAR401849 or their vehicle solvent were added to appropriate wells. After 48 h, viability was determined by addition of 10 µL CellTiterGlo reagent (Promega). Luminescence was determined as relative light units (RLU) in counts per second.
# 107 targets = assay: CEREP selectivity panel
# VEGFR1 [4] = target: T3, VEGFR1 (Homo sapiens, UniProt P17948); assay: Internal kinase panel, VEGFR1; settings: inhibition at 1 µM; 48 or 60 kinase panel
# Description: as §2
# VEGFR-3 [5] = target: VEGFR-3 (Mus musculus, UniProt P35917); assay: Cellular VEGFR-3 autophosphorylation assay, mouse receptor; settings: read-out: VEGFR-3 autophosphorylation, Cellular assay
# Description: as §1
# VEGFR2 [6] = target: T2, VEGFR2; assay: Biochemical kinase assay (in vitro assay), VEGFR-2; settings: read-out: VEGFR-2 autophosphorylation, In vitro assay
# Description: (§4) Sigma protein kinase assay kits were used. 125 μL per well of Poly-Glu-Tyr (PGT) solution (250 μg/mL of PGT in PBS without Ca^2+, Mg^2+ and sodium bicarbonate) was added in a 96-well plate and overnight incubation was performed at 37 °C. The day after, coating solution was removed and wells were washed with 300 μL of PBS-Tween-20 0.05 %. The washing buffer was removed and wells were dried for 2 h at 37 °C. 90 μL of the kinase buffer was supplemented with ATP (30 μM for VEGFR-1 and VEGFR-3, and 15 μM for VEGFR-2), and the compound (EVT801 or SAR401849 at the indicated concentration or 1 % DMSO for the vehicle control). The phosphorylation reaction was initiated by the addition of 20 μL of kinase buffer without ATP supplemented with 100 ng of the tyrosine kinase (or without tyrosine kinase as control). Plates were incubated with gentle agitation at room temperature for 30 min. After 3 washes with 300 μL of washing buffer, 100 μL of phosphotyrosine specific monoclonal antibody conjugated to HRP (1:30,000) was added onto the phosphorylated PGT. Plates were incubated for 30 min at room temperature under gentle agitation. Then, 3 washes with 300 μL of washing buffer were performed. […] After 7 min at room temperature, the reaction was stopped by addition of 100 μL of […], and absorbance was determined with an Endvision spectrophotometer at 492 nm.
# VEGFR1 [7] = target: T3, VEGFR1; assay: Biochemical kinase assay (in vitro assay), VEGFR-1; settings: read-out: VEGFR-1 autophosphorylation, In vitro assay
# Description: as §4
# VEGFR-3 [8] = target: VEGFR-3 (Rattus norvegicus, UniProt Q91ZT1); assay: Cellular VEGFR-3 autophosphorylation assay, rat receptor; settings: read-out: VEGFR-3 autophosphorylation, Cellular assay
# Description: as §1
# VEGFR2 [9] = target: T2, VEGFR2; assay: Internal kinase panel, VEGFR2; settings: inhibition at 1 µM; 48 or 60 kinase panel
# Description: as §2
# VEGFR-3 [10] = assay: Cellular VEGFR-3 autophosphorylation assay, dog receptor; settings: read-out: VEGFR-3 autophosphorylation, Cellular assay
# Description: as §1
# Pharmacokinetics in mice = settings: SCID mice with tumor
# Description: Plasma samples and tumor homogenates were mixed with the precipitant solution (acetonitrile containing internal standard). The supernatant (180 µL) was transferred in a 96-well plate and 5 µL were injected. EVT801 and its main metabolite were quantified by LC-MS/MS following standard conditions.
# Quality control (QC) samples and calibration samples were prepared daily by spiking mouse plasma and tumor homogenates with working solutions prepared from independent weighing. The calibration curve was calculated from calibration levels at 1, 2.5, 5, 10, 25, 50, 100, 200, 500, 1000 and 2000 ng/mL. A variation of ± 20 % versus the nominal concentrations was used as criteria for qualification of samples; at least 75 % of all standards needed to be within this window, and at least 6 concentration values within tis window were used for quantification. The concentrations for QC samples were 5, 50, 150, 450 and 1500 ng/mL. At least 66 % of all QC samples, and at least 50 % of QC samples at a given concentration were within the ± 20 % window. Quadratic regressions were applied, not forced through the origin, and weighted by 1/x (with R^2 > 0.98). The lower limit of quantification for both compounds was set to 1 ng/mL for plasma and to 3 ng/g for tumor samples.
# VEGFR2 [11] = target: T2, VEGFR2; assay: Cellular autophosphorylation assay, HEK293 cells transiently expressing VEGFR-2; settings: read-out: VEGFR-2 autophosphorylation, Cellular assay
# Description: as §1
# VEGFR-3 [12] = target: T1, VEGFR-3; assay: Viability of Ba/F3 cells dependent on VEGFR-3; settings: read-out: IC50, VEGFR-3-dependent viability
# Description: as §3
# VEGFR1 [13] = target: T3, VEGFR1; assay: Cellular autophosphorylation assay, HEK293 cells transiently expressing VEGFR-1
# Description: as §1
# LRRK2 = LRRK2 (Homo sapiens, UniProt Q5S007); assay: Internal kinase panel, LRRK2; settings: inhibition at 1 µM; 48 or 60 kinase panel
# Description: as §2
# VEGFR-3 [14] = target: T1, VEGFR-3; assay: Biochemical kinase assay (in vitro assay), VEGFR-3; settings: read-out: VEGFR-3 autophosphorylation, In vitro assay
# Description: as §4
smiles,measurement,setting,value
CCn1c(N)c(-c2ncc[nH]2)c(=O)c2ccc(C#C[C@@](C)(O)CO)nc21,IC50,VEGFR-3 [1],32.4 nM
same,"Ion channels, effect","Ion channels, 7 targets",No effect
same,"Selectivity, inhibition of AuroraB",AuroraB,50%
same,IC50,VEGFR-3 [2],34.2 nM
same,IC50,VEGFR2 [3],398 nM
same,"Selectivity, CEREP targets with > 80 % inhibition at 10 µM",107 targets,A3 A2a A1 PDE3A ^b
same,"Selectivity, inhibition of VEGFR1",VEGFR1 [4],61%
same,IC50,VEGFR-3 [5],63 nM
same,IC50,VEGFR2 [6],244 nM
same,IC50,VEGFR1 [7],823 nM
same,IC50,VEGFR-3 [8],91.4 nM
same,"Selectivity, inhibition of VEGFR2",VEGFR2 [9],90%
same,IC50,VEGFR-3 [10],44.7 nM
same,T1/2 in plasma,Pharmacokinetics in mice; 10 mg/kg for 2 weeks,2.6 h
same,T1/2 in plasma,Pharmacokinetics in mice; 30 mg/kg for 2 weeks,1.8 h
same,IC50,VEGFR2 [11],210 nM
same,IC50,VEGFR-3 [12],32 nM
same,maximum inhibition of VEGFR-1,VEGFR1 [13]; HEK293T cellular autophosphorylation assay,below 50%
same,IC50,"VEGFR1 [13]; read-out: VEGFR-1 autophosphorylation, Cellular assay, Human",2270 nM
same,"Selectivity, inhibition of LRRK2",LRRK2,54%
same,IC50,VEGFR-3 [14],19.7 nM
